Patent US9796733B2, “Imidazo-pyrazine derivatives useful as soluble guanylate cyclase activators” (Merck Sharp & Dohme Corp., priority 2014, dated 2017)

By UniProt entry, the sequences of proteins in these tests, tags left out.
UniProt Q02108, whole entry: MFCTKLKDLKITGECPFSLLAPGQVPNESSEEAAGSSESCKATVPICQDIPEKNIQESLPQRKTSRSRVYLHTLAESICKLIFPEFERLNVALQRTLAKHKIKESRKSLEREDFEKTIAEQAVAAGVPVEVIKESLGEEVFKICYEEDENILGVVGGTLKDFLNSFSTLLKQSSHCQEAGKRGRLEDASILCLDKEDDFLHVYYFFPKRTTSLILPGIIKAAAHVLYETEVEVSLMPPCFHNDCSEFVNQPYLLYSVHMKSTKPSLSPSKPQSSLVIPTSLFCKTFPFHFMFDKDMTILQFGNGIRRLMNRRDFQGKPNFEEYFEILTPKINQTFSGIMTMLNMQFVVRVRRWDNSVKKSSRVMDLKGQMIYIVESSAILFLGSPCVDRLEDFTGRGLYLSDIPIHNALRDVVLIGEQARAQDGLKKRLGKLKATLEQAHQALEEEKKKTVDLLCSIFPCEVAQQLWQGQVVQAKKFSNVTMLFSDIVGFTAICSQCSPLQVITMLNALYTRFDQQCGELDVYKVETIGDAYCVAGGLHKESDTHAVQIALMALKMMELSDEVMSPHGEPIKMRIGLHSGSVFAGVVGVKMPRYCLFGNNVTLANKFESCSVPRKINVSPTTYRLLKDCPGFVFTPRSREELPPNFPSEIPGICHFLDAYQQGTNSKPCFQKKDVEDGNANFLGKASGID
UniProt Q02153, whole entry: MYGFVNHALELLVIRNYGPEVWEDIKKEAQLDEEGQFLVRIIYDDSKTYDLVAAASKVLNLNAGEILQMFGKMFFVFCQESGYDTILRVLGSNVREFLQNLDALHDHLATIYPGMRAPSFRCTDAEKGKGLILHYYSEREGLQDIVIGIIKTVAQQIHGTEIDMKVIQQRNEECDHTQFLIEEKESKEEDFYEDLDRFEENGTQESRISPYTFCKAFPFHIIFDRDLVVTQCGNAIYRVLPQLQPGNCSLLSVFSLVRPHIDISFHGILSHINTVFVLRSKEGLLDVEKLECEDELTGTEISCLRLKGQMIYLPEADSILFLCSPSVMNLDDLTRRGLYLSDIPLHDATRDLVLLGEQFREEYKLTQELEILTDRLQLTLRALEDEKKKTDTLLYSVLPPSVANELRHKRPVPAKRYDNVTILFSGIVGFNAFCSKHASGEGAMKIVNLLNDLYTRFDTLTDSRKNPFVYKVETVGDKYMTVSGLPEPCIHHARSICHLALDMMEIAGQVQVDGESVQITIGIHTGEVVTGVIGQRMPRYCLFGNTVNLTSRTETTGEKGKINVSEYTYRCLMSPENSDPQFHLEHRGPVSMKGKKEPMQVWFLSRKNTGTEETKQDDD

Target: sGC α1/β1 heterodimer (Homo sapiens, UniProt Q02108+Q02153)
Assay: Cell-based sGC functional assay (CASA assay): cGMP generation in CHO-K1/sGC cells, HTRF detection
Description: Biological Assay 1: Cell-Based sGC Functional Assay (CASA Assay)
sGC is a heme-containing enzyme that converts GTP to secondary messenger cGMP. Increases in cGMP levels affect several physiological processes including vasorelaxation through multiple downstream pathways. […] Heme-dependent activators (HDAs) preferentially activate sGC containing a ferrous heme group. To determine the effect of sGC activators on enzyme activity, the CASA assay was developed to monitor the generation of cGMP in a cell line that stably expresses the heterodimeric sGC protein.
A CHO-K1 cell line stably expressing the sGC α1/β1 heterodimer was generated using a standard transfection protocol. CHO-K1 cells were transfected with plasmids pIREShyghsGCal and pIRESneo-hsGCβ1 simultaneously using FUGENE reagent. Clones that stably express both subunits were selected with hygromycin and neomycin for 2 weeks. Clone #7 was chosen for the assay and was designated CHO-K1/sGC. […] The level of intracellular cGMP was determined using an HTRF-based assay kit (CisBio, 62GM2PEC), which detects the displacement of a fluorescence labeled cGMP from its specific antibody. […]
[drawing 597] […] The test compounds' activities were then expressed as a percentage of Compound A, the standard in every experiment. This percent activation was calculated either in the presence or absence of DETA-NO which was then plotted. […]

COC(=O)c1c(C)nc2c(CCC(F)(F)C(F)(F)F)nc(-c3nc(N)c4c(n3)NC(=O)C4(C)c3ccc(F)cc3)cn12 (centres unmarked)
% Act. (percent activation relative to standard Compound A in CHO-K1/sGC cells): 92%
EC50 (read-out: IP, inflection point (IP) of cGMP generation in CHO-K1/sGC cells, 4P fit, activity expressed as percentage of Compound A): 1.69 µM
